From US20140287931A1, “METHODS AND COMPOSITIONS FOR PREDICTING RESISTANCE TO ANTICANCER TREATMENT” (Stichting het Nederlands Kanker Instituut - Antoni van …, priority 2011, published 2014)

Tests used:
[1] = test system: BT474 breast cancer cells; conditions: parental, naturally HER2 amplified; previously shown by Applicants; cited from earlier work
[2] = test system: BT474 breast cancer cells; experiment: Colony formation assay in BT474 cells with ARID1A knockdown; assay type: cell-based, human; conditions: 25 nM AZD8055 or 2 ug/ml trastuzumab, 4 weeks
Method: The functional phenotypes of non-overlapping shARID1A vectors are indicated by the colony formation assay in 25 nM small molecule mTOR inhibitor AZD8055 or 2 ug/ml of trastuzumab (Herceptin). The cells were fixed, stained and photographed after 2 weeks (untreated) or 4 weeks (inhibitor treatment).

With Trastuzumab as the substance, how does the “sensitivity of BT474 cells” value [1] read?
Its value is “highly sensitive”.

And the “resistance on knockdown of ARID1A, colony formation” value [2]?
The value was “conferred resistance”.

And the “resistance on knockdown of ARID1A, colony formation” value ([2]; listed as trastuzumab)?
Its value is “confers resistance”.
